## Binding of CDR-mutated scFvs to a peptide of the spike HR2 region

Source: Li et al. 2023 (doi:10.1038/s41467-023-39022-2), MIT Lincoln Laboratory and A-Alpha Bio; data file from the FLAb repository.

All variants were tested on one target, the spike HR2 peptide PDVDLGDISGINAS (SARS-CoV-2).

Each scFv is VH, three GGGGS repeats, VL, as in the parent Ab-14, and differs from it in the CDRs of the light chain only.
VH: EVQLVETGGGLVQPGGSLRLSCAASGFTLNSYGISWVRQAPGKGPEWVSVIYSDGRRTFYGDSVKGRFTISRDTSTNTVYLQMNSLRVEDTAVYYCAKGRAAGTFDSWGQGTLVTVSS
VL: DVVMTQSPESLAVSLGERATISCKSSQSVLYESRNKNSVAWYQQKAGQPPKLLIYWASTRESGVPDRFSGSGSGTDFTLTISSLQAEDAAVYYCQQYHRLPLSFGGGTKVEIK

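The starting antibody came from a phage panning campaign against this peptide. This is the validation round: designs drawn from the data on random variants, tested in the same kind of assay. Several design methods are mixed in this list. The scFvs were displayed on barcoded MATa yeast, the peptide on MATalpha yeast. Mating (16 h, 30 °C) was followed by selection of diploids and sequencing of their barcodes. A regression on co-assayed BCL2-family reference pairs converts the normalised counts of each replicate to an apparent Kd. There are six technical replicates.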

The parent's light chain CDRs are KSSQSVLYESRNKNSVA, WASTRES, QQYHRLPLS; each variant's own CDRs replace them letter for letter. Values are log10 of the apparent Kd in nM; lower means stronger binding. The mean shown is taken over the replicates in which the pair was detected. "not detected" marks a missing value. The strain was present, yet no cells mated with the target were sequenced in any replicate, which points to weak or no binding. The list is sorted by this average, lowest first, undetected variants last.

"log10 Kd (nM), mean",seen in,CDR-L1,CDR-L2,CDR-L3
-0.72,6/6,KLIQSVLYESRNKNSVA,NASTRES,QQYHRLPLS
-0.58,6/6,KLSQSELYESRNKNNVA,NASTRES,QQYHRLPLS
-0.37,6/6,KVPQSNLYESRNANNVA,SASTRLS,QQYHRLPLS
-0.30,6/6,HSNGSLRMDSRNKNHVA,DTTVRES,QQYMRLPLV
-0.28,6/6,KLQQSQLYESRNKNSVA,NASLRES,QQYHRLPLS
-0.22,6/6,KMKQSIEGNPKNWNSIA,DVDSVTE,QQYARLPLF
-0.18,6/6,KLQQSMLYESRNKNSVA,NASTRCS,QQYHRLPLS
-0.16,6/6,KLQMMVEMESRNPNSVA,SASTRLL,QQYHRLPLS
-0.13,6/6,KSLQSVLYESRNKNSVA,GASTRED,QQYHRLPLS
-0.12,6/6,KLRTSVEYGSRNKNSVA,SASTRES,QQYHRLPLS
-0.11,6/6,KSSQSFLYESRNKNSVA,GASTRES,QEYHRLTLS
-0.04,6/6,SLMQSVLYESRNKNSVA,HASLREE,QQYHRLPLS
-0.04,6/6,KLPQSVLYESRMKNSVA,NASTRMS,QQYHRLPLS
-0.03,6/6,KSECGVLYEGRNKNSVA,GASTRES,QQYHRLPLS
-0.02,6/6,KLSDSVLYESRNKNSVA,NASTRES,QQYHRLPLM
0.01,6/6,KSGQGVDYESRNKNSVA,GASQRWS,QQYHRLPLS
0.04,6/6,KLPQSELYESRNKNSVA,SASQRES,QQYHRLPLS
0.04,6/6,KISQSVLYESRNKNSVA,MASTRES,QQYHRLPLS
0.06,6/6,KFQWSNPYESRNKNSVA,NASTRMS,QQYWRLPLS
0.14,6/6,KLSQSWLYESRQKNSVA,NASQRES,QQYHRLPLS
0.15,6/6,KLTSLTGTEKVRGNNVA,EMETREK,QQYNRLPLA
0.17,6/6,KLSQSDLYEQRNKNSVA,NASTRES,QQYHRLPLS
0.19,6/6,HITYGMNVAGRHSSSIA,QAEEREK,QQYDRLPLS
0.19,6/6,KCEQSSDYESRNKNSVA,NASTREV,QQYHRLPLS
0.25,6/6,KLMQSMLYESRNSNSVA,QASTREH,QQYHRLPLM
0.39,6/6,KVSMSVLYESRVKNSVA,NASTRES,QQYHRLPLI
0.42,6/6,KLSQSELYESRCHNNVA,NASQRES,QQYHRLPLS
0.53,6/6,KVSWLHPYWSRNKNSVA,NASTREQ,QQYHRLPLS
0.59,6/6,KSSQSVLYQSRNKNSVA,EASTRES,QQYHRLPLS
0.74,6/6,RVRLNSGEIDMHWYNIA,SASIRAD,QQYFRLPIF
0.74,6/6,KSSKSVLFESRNKNSVA,NASTREQ,QQYHRLPLS
0.78,6/6,MMSQVTGSGQRHRNNVA,QTSTREP,QQYDRLPLI
0.81,6/6,EIQWQQYGENAMEAAIA,NEGTRHQ,QQYSRLPLT
0.89,6/6,RLWQQMYGFNIHKNAIA,EGKERTW,QQYFRLPLS
0.89,6/6,KSSISYLEESRNKNSVA,EASTREQ,QQYHRLPLS
0.93,6/6,QLQFLDVQYGVKEQAIA,EENQRMQ,QHYFRLPLS
0.93,3/6,KFSGSVNSMSVSKSAVA,EMSTRPE,QQYNRLPLA
0.95,6/6,TITQVQGMESHNKDNVA,DLSTRGN,QQYDRLPLS
1.15,6/6,KISQSVLKESRNKNSVA,WASTRES,QQYHRLPLS
1.19,1/6,KSSQEVLYESRNKYSVA,WASTRES,QQYHRLPLW
1.31,6/6,KISFWSYRGSQWHNNIA,EGSQRAE,QQYSRLPLN
1.44,6/6,KISQMQRVGSTHTNSIA,EEATRAK,QQYHRLPLF
1.57,5/6,KLTMITGLEKVQTNNVA,EMETREK,QQYNRLPLS
1.58,2/6,KSDQSVLYESRHKNSVA,WASTREL,QQYHRLPLS
1.76,5/6,LSSQSVLYESRDKNSVA,WASTRES,QQYHRLPLS
1.80,5/6,KLQGSHLYESRNKNSVA,HASQRLS,QCYHRLPLS
1.81,1/6,KMSQSVLYESRRKNSVA,WASTGES,QQYHRLPLS
1.82,5/6,KSSQSVLYESRNKNSVA,WASVREE,QQYHRLPLS
1.85,3/6,KLDLLNGEMDKGGDNIA,EVSTAGM,QHYWRLPLS
1.86,5/6,KLDLYNGEMDKKGDNIA,EASTAGM,QHYWRLPLS
2.97,1/6,KLLDWEYGTWAMNSSIA,DAALESD,QQYDRLPLT
not detected,0/6,KSSGSVLYESNNKNSVA,GDSTRES,QQYHRLPLG

Extract of 6 entries:

CDR-L1,CDR-L2,CDR-L3,"log10 Kd (nM), mean",seen in
EIQWQQYGENAMEAAIA,NEGTRHQ,QQYSRLPLT,0.81,6/6
KLPQSVLYESRMKNSVA,NASTRMS,QQYHRLPLS,-0.04,6/6
RVRLNSGEIDMHWYNIA,SASIRAD,QQYFRLPIF,0.74,6/6
KLSQSELYESRCHNNVA,NASQRES,QQYHRLPLS,0.42,6/6
SLMQSVLYESRNKNSVA,HASLREE,QQYHRLPLS,-0.04,6/6
KSSQEVLYESRNKYSVA,WASTRES,QQYHRLPLW,1.19,1/6

The authors' rule: three or more of the six replicates give a measured affinity, fewer mean a poor binder. Empty control strains, which show no peptide, gave a signal in 4% of pairings with all light chain designs; the median was 2.64 and 95% of these signals were weaker than 1.59. No background was subtracted. A sequence measured in both rounds can read differently, since the two assays cover different ranges.